Experimental data from patent US20020042374A1, “METHOD OF TREATING INSULIN INSENSITIVITY AND SYNDROME X” (priority 1997, published 2002).

By UniProt entry, the sequences of proteins in these tests, tags left out. Where a name states a change or a piece, a line headed by the entry shows the natural chain unless it says otherwise.
UniProt P31391: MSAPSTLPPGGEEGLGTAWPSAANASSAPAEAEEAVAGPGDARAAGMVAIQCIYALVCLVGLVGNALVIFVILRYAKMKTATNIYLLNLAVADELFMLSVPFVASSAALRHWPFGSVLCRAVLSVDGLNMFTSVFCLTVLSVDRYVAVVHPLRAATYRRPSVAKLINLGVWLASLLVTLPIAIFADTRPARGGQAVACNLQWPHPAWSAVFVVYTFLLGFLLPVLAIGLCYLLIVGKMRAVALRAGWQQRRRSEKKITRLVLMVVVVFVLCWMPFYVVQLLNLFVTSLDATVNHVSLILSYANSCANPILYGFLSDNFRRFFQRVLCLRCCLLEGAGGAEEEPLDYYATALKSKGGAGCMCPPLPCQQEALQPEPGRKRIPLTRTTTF

Molecular target: human SSTR-4 (Homo sapiens, UniProt P31391)
Assay: Somatostatin receptor binding assay, hSSTR-4

`C[C@@H](O)[C@@H]1NC(=O)[C@H](CCCCN)NC(=O)[C@@H](Cc2c[nH]c3ccccc23)NC(=O)[C@H](Cc2ccccc2)NC(=O)[C@H](Cc2ccccc2)NC(=O)[C@@H](N)CSSC[C@@H](C(N)=O)NC(=O)[C@H](Cc2ccccc2)NC1=O` [BIM-23268, H-Cys-Phe-Phe-D-Trp-Lys-Thr-Phe-Cys-NH2] was tested, and the Ki was 3.55 µM.
